Experimental data reported in BindingDB's records for doi:10.1016/s0960-894x(98)00065-1 (University of Arizona, 1999).
pKi: −log10 of the molar value.

Assay: Compound was tested for binding affinity towards Opioid receptor delta 1 in guinea pig brain homogenates using [3H][p-Cl-Phe]-DPDPE as radioligand

C[C@@H](NC(=O)[C@@H](N)Cc1ccc(O)cc1)C(=O)NCC(=O)N[C@@H](Cc1ccccc1)C(=O)NNC(=O)[C@H](Cc1ccccc1)NC(=O)CNC(=O)[C@@H](C)NC(=O)[C@@H](N)Cc1ccc(O)cc1 [2-Amino-N-((S)-1-{[(2-{N'-[2-(2-{(S)-2-[2-amino-3-(4-hydroxy-phenyl)-propionylamino]-propionylamino}-acetylamino)-3-phenyl-propionyl]-hydrazino}-1-benzyl-2-oxo-ethylcarbamoyl)-methyl]-carbamoyl}-ethyl)-3-(4-hydroxy-phenyl)-propionamide]
pKi: 8.28
